Literature values as cited in patent publication US10473640B2, “Drug selection for gastric cancer therapy using antibody-based arrays” (Société des Produits Nestlé S.A., priority 2006, dated 2019).

Key:
HER2(+) gastric cancer = settings: XP+trastuzumab vs capecitabine+cisplatin (XP); cited from earlier work
[1] = system: HER2(+) metastatic breast cancer; settings: cited from earlier work

Question: With “trastuzumab: humanized monoclonal antibody which selectively targets HER2” as the substance, how does the “progression free survival rate” value (HER2(+) gastric cancer) read?
Answer: significant prolongation

Question: What about the survival [1] of the same substance?
Answer: survival benefit
